From patent US10324085B2, “Systems and methods for the monitoring of protein complex formation in cells” (priority 2013, dated 2019) come the findings set out here.

Chains of the proteins cited; added tags and fusions are not shown. Lines headed by an entry give the natural chain unless they say otherwise; changes in a name come on top.
UniProt Q92731: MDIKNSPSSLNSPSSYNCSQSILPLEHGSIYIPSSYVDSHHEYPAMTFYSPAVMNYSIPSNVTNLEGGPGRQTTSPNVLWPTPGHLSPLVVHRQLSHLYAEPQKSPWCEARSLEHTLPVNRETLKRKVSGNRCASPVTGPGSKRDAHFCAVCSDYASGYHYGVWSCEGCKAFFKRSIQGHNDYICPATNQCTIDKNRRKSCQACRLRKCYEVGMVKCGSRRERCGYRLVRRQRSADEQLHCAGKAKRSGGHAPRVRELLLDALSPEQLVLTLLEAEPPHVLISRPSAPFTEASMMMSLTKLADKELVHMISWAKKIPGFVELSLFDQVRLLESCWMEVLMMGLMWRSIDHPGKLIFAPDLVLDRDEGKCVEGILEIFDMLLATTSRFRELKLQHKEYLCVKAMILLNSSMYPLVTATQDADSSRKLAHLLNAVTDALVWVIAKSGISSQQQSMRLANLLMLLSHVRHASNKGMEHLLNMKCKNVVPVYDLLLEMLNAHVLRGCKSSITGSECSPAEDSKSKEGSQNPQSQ

In this assay the target is ERβ (Homo sapiens, UniProt Q92731). As to the kind of experiment: BRET assay ERβ and CoApep-Venus. Background: Bioluminescence resonance energy transfer reports proximity on the nanometre scale.

As for 4-hydroxytamoxifen, the “recruitment of CoApep-Venus to ERβ, BRET” value is recorded as “OHT-repressed”.
